{"sequences": {"note": "Protein sequences, listed by entry. Tags and fused reporters are not part of them. Lines headed by an entry give the natural chain unless they say otherwise; changes in a name come on top.", "UniProt P35414": "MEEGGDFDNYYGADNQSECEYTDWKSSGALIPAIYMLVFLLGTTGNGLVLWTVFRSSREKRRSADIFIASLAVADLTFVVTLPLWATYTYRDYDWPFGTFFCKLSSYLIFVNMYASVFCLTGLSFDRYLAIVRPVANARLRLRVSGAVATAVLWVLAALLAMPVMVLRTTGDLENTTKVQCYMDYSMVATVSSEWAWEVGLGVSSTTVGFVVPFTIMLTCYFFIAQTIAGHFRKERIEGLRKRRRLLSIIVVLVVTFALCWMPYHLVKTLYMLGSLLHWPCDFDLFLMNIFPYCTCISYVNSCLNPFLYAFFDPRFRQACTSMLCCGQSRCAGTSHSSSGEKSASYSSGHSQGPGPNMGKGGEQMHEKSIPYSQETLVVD"}, "source": "patent US11046680B1", "about": "“Heteroaryl-substituted triazoles as APJ receptor agonists” (priority 2016, dated 2021)", "note": "pEC50: −log10 of the molar value."}
{"biological_target": "human APJ receptor (Homo sapiens (Human), UniProt P35414)", "assay": "biochemical", "settings": "Activity hAPJ SPA EC50 IP (μM), [35S]GTPγS binding, CHO membranes expressing human APJ receptor", "description": "(§1) The human APJ receptor was cloned by polymerase chain reaction and the gene encoding the receptor was subcloned in pFLAG-CMV™-3 expression vector (Sigma, Saint Louis, Mo. USA) in-house at Amgen. A GTPγS binding assay was performed on membranes prepared from CHO cells stably expressing human APJ receptor. The optimum experimental conditions for the concentrations of GDP, MgCl2, and NaCl in the assay buffer were initially determined. […] Incubation was at RT for 90 min and the microplate was read using a ViewLux™ ultra HTS Microplate Imager (PerkinElmer, Inc.).", "units": {"EC50": "µM"}}
{"smiles": "COc1cccc(OC)c1-n1c(NS(=O)(=O)[C@@H](C)[C@H](OC)c2ncc(C#N)cn2)nnc1-c1ccn(C)n1", "note": "[Example 213.0, (1R,2S)-1-(5-cyanopyrimidin-2-yl)-N-(4-(2,6-dimethoxyphenyl)-5-(1-methyl-1H-pyrazol-3-yl)-4H-1,2,4-triazol-3-yl)-1-methoxypropane-2-sulfonamide]", "EC50": 0.0012}
{"smiles": "COc1ccc(N(C)C)cc1-n1c(NS(=O)(=O)CCc2ccc(F)cc2)nnc1-c1cccs1", "note": "[Example 303.0, N-(4-(5-(Dimethylamino)-2-methoxyphenyl)-5-(2-thiophenyl)-4H-1,2,4-triazol-3-yl)-2-(4-fluorophenyl)ethanesulfonamide]", "EC50": 0.014}
{"biological_target": "human APJ receptor (Homo sapiens (Human), UniProt P35414)", "assay": "biochemical", "settings": "[35S]GTPγS binding, CHO membranes expressing human APJ receptor; read-out: Activity hAPJ SPA EC50 IP", "description": "as §1"}
{"smiles": "COCC[C@@H]([C@H](C)c1ncc(F)cn1)S(=O)(=O)Nc1nnc(-c2nc(C)cs2)n1-c1c(OC)cccc1OC", "note": "(single isomer, unassigned) [Example 20.0]", "pEC50": 8.96}
{"smiles": "COc1cccc(OC)c1-n1c(NS(=O)(=O)[C@H](C)[C@H](O)c2ccc(F)cn2)nnc1-c1ccn(C)n1", "note": "(single isomer, unassigned) [Example 23.0]", "pEC50": 8.96}
{"smiles": "COc1cccc(OC)c1-n1c(NS(=O)(=O)[C@H](C)Cc2ncc(F)cn2)nnc1-c1conc1C", "note": "(single isomer, unassigned) [Example 64.0, (R)-N-(4-(2,6-dimethoxyphenyl)-5-(3-methylisoxazol-4-yl)-4H-1,2,4-triazol-3-yl)-1-(5-fluoropyrimidin-2-yl)propane-2-sulfonamide or (S)-N-(4-(2,6-dimethoxyphenyl)-5-(3-methylisoxazol-4-yl)-4H-1,2,4-triazol-3-yl)-1-(5-fluoropyrimidin-2-yl)propane-2-sulfonamide]", "pEC50": 6.82}
{"smiles": "COc1cccc(OC)c1-n1c(NS(=O)(=O)C[C@H](O)c2ccc(Cl)cn2)nnc1-c1ccn(C)n1", "note": "(single isomer, unassigned) [Example 366.0, (R)-2-(5-Chloropyridin-2-yl)-N-(4-(2,6-dimethoxyphenyl)-5-(1-methyl-1H-pyrazol-3-yl)-4H-1,2,4-triazol-3-yl)-2-hydroxyethanesulfonamide or (S)-2-(5-chloropyridin-2-yl)-N-(4-(2,6-dimethoxyphenyl)-5-(1-methyl-1H-pyrazol-3-yl)-4H-1,2,4-triazol-3-yl)-2-hydroxyethanesulfonamide]", "pEC50": 8.33}
{"smiles": "COc1cccc(OC)c1-n1c(NS(=O)(=O)[C@H](C)Cc2ncc(F)cn2)nnc1-c1cc(C)no1", "note": "[Example 62.0, ((R)-N-(4-(2,6-dimethoxyphenyl)-5-(3-methylisoxazol-5-yl)-4H-1,2,4-triazol-3-yl)-1-(5-fluoropyrimidin-2-yl)propane-2-sulfonamide (or (R)-N-(4-(2,6-dimethoxyphenyl)-5-(3-methylisoxazol-5-yl)-4H-1,2,4-triazol-3-yl)-1-(5-fluoropyrimidin-2-yl)propane-2-(sulfonamide]", "pEC50": 7.80}
{"smiles": "COc1ccc(C2=CCSCC2)cc1-n1c(NS(=O)(=O)CCc2ccc(Cl)cc2)nnc1-c1cccs1", "note": "[Example 248.0, 2-(4-chlorophenyl)-N-(4-(5-(3,6-dihydro-2H-thiopyran-4-yl)-2-methoxyphenyl)-5-(thiophen-2-yl)-4H-1,2,4-triazol-3-yl)ethanesulfonamide]", "pEC50": 7.68}
{"smiles": "COc1ccc(N2CCOC2=O)cc1-n1c(NS(=O)(=O)CCc2ccc(Cl)cc2)nnc1-c1cccs1", "note": "[Example 249.0, 2-(4-chlorophenyl)-N-(4-(2-methoxy-5-(2-oxooxazolidin-3-yl)phenyl)-5-(thiophen-2-yl)-4H-1,2,4-triazol-3-yl)ethanesulfonamide]", "pEC50": 6.14}
{"smiles": "COc1ccc(C2=CCS(=O)(=O)CC2)cc1-n1c(NS(=O)(=O)CCc2ccc(Cl)cc2)nnc1-c1cccs1", "note": "[Example 250.0, 2-(4-chlorophenyl)-N-(4-(5-(1,1-dioxido-3,6-dihydro-2H-thiopyran-4-yl)-2-methoxyphenyl)-5-(2-thiophenyl)-4H-1,2,4-triazol-3-yl)ethanesulfonamide]", "pEC50": 7.89}
{"smiles": "COc1ccc(Br)cc1-n1c(NS(=O)(=O)CCc2ccc(F)cc2)nnc1-c1cccs1", "note": "[Example 302.0, N-(4-(5-Bromo-2-methoxyphenyl)-5-(2-thiophenyl)-4H-1,2,4-triazol-3-yl)-2-(4-fluorophenyl)ethanesulfonamide]", "pEC50": 6.49}
{"smiles": "COc1cccc(OC)c1-n1c(NS(=O)(=O)[C@@H](C)[C@H](OC)c2cnc(C)cn2)nnc1-c1ccn(C)n1", "note": "[Example 323.0, (1R,2S)-N-(4-(2,6-dimethoxyphenyl)-5-(1-methyl-1H-pyrazol-3-yl)-4H-1,2,4-triazol-3-yl)-1-methoxy-1-(5-methyl-2-pyrazinyl)-2-propanesulfonamide]", "pEC50": 8.96}
{"smiles": "COc1cccc(OC)c1-n1c(NS(=O)(=O)[C@@H](C)[C@H](OC)c2ncc(Cl)cn2)nnc1-c1ccn(C)n1", "note": "[Example 330.0, (1R,2S)-1-(5-chloropyrimidin-2-yl)-N-(4-(2,6-dimethoxyphenyl)-5-(1-methyl-1H-pyrazol-3-yl)-4H-1,2,4-triazol-3-yl)-1-methoxypropane-2-sulfonamide]", "pEC50": 9.21}
